Each block holds one compound with its values, some of them ahead of it.
Tested on: lipase
Assay: Lipase/lipolysis assay (EnzChek Lipase Substrate, quenched BODIPY-fatty acid conjugate) on stored human milk
[1] = compound added to fresh human milk, stored 1 week at −20° C., thawed at room temperature, RFU <400 considered a hit
[2] = Food Additive Library compound added to fresh human milk, stored 1 week at −20° C., thawed at room temperature, RFU of <400 considered a hit
[3] = Biolog PM4 compound added to fresh human milk, stored 1 week at −20° C., RFU <400 = hit
[4] = Food-Sourced Compound Library compound added to fresh human milk, stored 1 week at −20° C., thawed at room temperature, RFU <400 considered a hit
[5] = Biolog PM2a compound added to fresh human milk, stored 1 week at −20° C., RFU <400 = hit
[6] = Biolog PM5 compound added to fresh human milk, stored 1 week at −20° C., RFU <400 = hit
[7] = Biolog PM1 compound added to fresh human milk, stored 1 week at −20° C., RFU <400 = hit

Compound: Cc1ccc(CO)o1 [5-Methyl-2-furanmethanol]
Lipase (RFU) [2]: 971.233 RFU

Compound: O=C(O)CC(O)(CC(=O)O)C(=O)O [Citric acid (trisodium)]
Lipase (RFU) [2]: 1189.911 RFU

Compound: O=C1O[C@H]([C@@H](O)CO)C(O)=C1O [Vitamin C, ascorbic acid]
Lipase (RFU) (Table 7, 500 μg/mL (vitamin C, E, carbonate/bicarbonates), human milk stored 1 week at −20° C., inhibited if RFU <400): 696.099 RFU

Compound: N=C(N)NCCCC(=O)O [4-Guanidinobutanoic acid]
Lipase (RFU) [4]: 846.7738 RFU

Compound: Nc1nc2c(ncn2[C@@H]2O[C@H](COP(=O)(O)O)[C@@H](O)[C@H]2O)c(=O)[nH]1 [Guanosine-5′-monophosphate]
Lipase (RFU) [3]: 634.7352 RFU

Compound: C/C=C(/C)C(=O)O[C@H]1Cc2cc3ccc(=O)oc3cc2OC1(C)C [Decursinol angelate]
Lipase (RFU) [4]: 819.0637 RFU

Compound: CC(O)(CC(=O)O)C(=O)O (centres unmarked) [Citramalic Acid]
Lipase (RFU) [5]: 1053.518 RFU

Compound: COC(=O)C=Cc1ccccc1 [Methyl cinnamate]
Lipase (RFU) [2]: 944.3607 RFU
Lipase (RFU) [4]: 1068.136 RFU

Compound: N[C@@H](CSC[C@H](N)C(=O)O)C(=O)O [Lanthionine]
Lipase (RFU) [3]: 968.1267 RFU

Compound: O=C(O)[C@@H]1CCCN1 [L-Proline]
Lipase (RFU) [7]: 933.1142 RFU
Lipase (RFU) [6]: 680.3258 RFU
Lipase (RFU) [2]: 765.3953 RFU
Lipase (RFU) [4]: 1004.063 RFU

Compound: C/C=C(\CC[C@@H](C)[C@H]1CC[C@H]2[C@@H]3CC=C4C[C@@H](O)CC[C@]4(C)[C@H]3CC[C@]12C)C(C)C [Fucosterol]
Lipase (RFU) [1]: 973.5706 RFU

Compound: CC1=CC(=O)c2c(O)cccc2C1=O [Plumbagin]
Lipase (RFU) [1]: 841.9499 RFU

Compound: O=C(O)c1ccc(O)cc1O [2,4-Dihydroxybenzoic acid]
Lipase (RFU) [2]: 1064.046 RFU

Compound: O=c1ccn([C@H]2C[C@H](O)[C@@H](CO)O2)c(=O)[nH]1 [2′-Deoxy Uridine]
Lipase (RFU) [6]: 822.7632 RFU

Compound: C[C@H]1CC[C@@]2(OC1)O[C@H]1C[C@H]3[C@@H]4CC[C@@H]5C[C@@H](O)CC[C@]5(C)[C@H]4CC[C@]3(C)[C@H]1[C@@H]2C [Sarsasapogenin]
Lipase (RFU) [1]: 952.9686 RFU

Compound: CC(C)=CCC[C@](C)(O)[C@@H]1CC=C(C)CC1 [Levomenol]
Lipase (RFU) [1]: 1094.539 RFU

Compound: CCCCCCCCCCCCCCCCCCO [Compound 1-Hydroxyoctadecane, 1-Hydroxyoctadecane]
Lipase (RFU) [2]: 866.8281 RFU

Compound: C=CCSC[C@H](N)C(=O)O [S-Allyl-L-cysteine]
Lipase (RFU) [2]: 780.4627 RFU
Lipase (RFU) [4]: 686.1385 RFU

Compound: CC1(C)S[C@@H]2[C@H](NC(=O)[C@H](N)c3ccccc3)C(=O)N2[C@H]1C(=O)O [Ampicillin (trihydrate)]
Lipase (RFU) [4]: 846.9314 RFU

Compound: O=Cc1c[nH]c2ccccc12 [Indole-3-carboxaldehyde]
Lipase (RFU) [1]: 925.3793 RFU

Compound: CSCC[C@H](NC(=O)CN)C(=O)O [Glycyl-L-Methionine]
Lipase (RFU) [3]: 941.7214 RFU

Compound: O=c1cc(-c2ccc(O)cc2)oc2cc(O)ccc12 [7,4′-Dihydroxyflavone]
Lipase (RFU) [1]: 997.8526 RFU

Compound: C=C1C[C@@]23CC[C@H]4[C@@](C)(CCC[C@@]4(C)C(=O)O)[C@@H]2CC[C@@H]1C3 [Kaurenoic acid]
Lipase (RFU) [4]: 863.4076 RFU

Compound: COc1cc(CCO)ccc1O [Homovanillyl alcohol]
Lipase (RFU) [1]: 1114.77 RFU

Compound: NCCc1ccccc1 [Phenylethyl-amine]
Lipase (RFU) [7]: 904.3943 RFU

Compound: O=C(CO)[C@@H](O)[C@@H](O)CO [L-Ribulose]
Lipase (RFU) [4]: 1193.604 RFU

Other lines, results leading:

Lipase (RFU) [1]: 1090.874 RFU
Compound: CC(C)(COP(=O)(O)OP(=O)(O)OC[C@H]1O[C@@H](n2cnc3c(N)ncnc32)[C@H](O)[C@@H]1OP(=O)(O)O)[C@@H](O)C(=O)NCCC(=O)NCCS [Coenzyme A]

Lipase (RFU) [3]: 752.2541 RFU
Compound: C[C@@H](OP(=O)(O)O)[C@H](N)C(=O)O [O-Phospho-L-Threonine]

Lipase (RFU) [4]: 1043.684 RFU
Compound: CC(=O)N[C@@H](CCCNC(=N)N)C(=O)O [N-Acetyl-L-arginine]

Lipase (RFU) [1]: 1070.95 RFU
Compound: CCCCCCCCCCCCCCCCC(=O)O [Heptadecanoic acid]

Lipase (RFU) [2]: 868.0625 RFU
Compound: C[C@H](CCC(=O)NCC(=O)O)[C@H]1CC[C@H]2[C@@H]3[C@H](O)C[C@@H]4C[C@H](O)CC[C@]4(C)[C@H]3C[C@H](O)[C@]12C [Glycocholic acid]

Lipase (RFU) [2]: 739.4473 RFU
Compound: Lysozyme from chicken egg white

Lipase (RFU) [5]: 344.0037 RFU
Hit in lipase inhibition screen (in words) (approximately 2700 compound screen, human milk stored 1 week at −20° C., hit = RFU <400): significantly inhibited lipase activity
Effect on lipase / lipolysis (in words) (human milk stored 1 week at −20° C.): decreased lipase levels
Effect on lipase / lipolysis (in words) (human milk stored 1 week at −20° C., listed as pectin): did inhibited lipase
Compound: Pectin

Lipase (RFU) [6]: 952.179 RFU
Compound: Nc1ncnc2c1ncn2[C@@H]1O[C@H](CO)[C@@H](O)[C@H]1O [Adenosine]

Lipase (RFU) [2]: 847.2749 RFU
Compound: COc1cccc(OC)c1 [1,3-Dimethoxybenzene]

Lipase (RFU) [3]: 718.4579 RFU
Compound: O=c1ccn([C@@H]2O[C@H](CO)[C@@H](OP(=O)(O)O)[C@H]2O)c(=O)[nH]1 [Uridine-3′-monophosphate]

Lipase (RFU) [4]: 873.6162 RFU
Compound: CCCCCCCCCCCCCCCC(=O)O[C@@H]1CC(C)=C(/C=C/C(C)=C/C=C/C(C)=C/C=C/C=C(C)/C=C/C=C(C)/C=C/C2=C(C)C[C@@H](OC(=O)CCCCCCCCCCCCCCC)CC2(C)C)C(C)(C)C1 [Zeaxanthin dipalmitate]

Lipase (RFU) [1]: 801.3808 RFU
Compound: NC(C(=O)O)C(=O)O [Aminomalonic acid]

Lipase (RFU) [3]: 913.5487 RFU
Compound: N[C@H](COP(=O)(O)O)C(=O)O [O-Phospho-D-Serine]

Lipase (RFU) [1]: 1127.603 RFU
Compound: O=C(O)Cc1cccc(O)c1 [3-Hydroxyphenylacetic acid]

Lipase (RFU) [1]: 862.0442 RFU
Compound: COc1cc(/C=C/c2cc(O)cc(O)c2)ccc1O [Isorhapontigenin]

Lipase (RFU) [4]: 998.6616 RFU
Compound: CN(C)CC(=O)O [N-Methylsarcosine]

Lipase (RFU) [2]: 1182.162 RFU
Compound: COc1cccc(C(=O)O)c1 [3-Methoxybenzoic acid]

Lipase (RFU) [7]: 994.5383 RFU
Compound: O=CC(=O)O [Glyoxylic Acid]

Lipase (RFU) [2]: 1098.735 RFU
Compound: COC(=O)C1CCCCC1 [Methyl cyclohexanecarboxylate]

Lipase (RFU) [6]: 947.068 RFU
Compound: Cc1c[nH]c(=O)[nH]c1=O [Thymine]

Lipase (RFU) [2]: 1064.978 RFU
Compound: CC(=O)c1ccc(C)cc1 [4′-Methylacetophenone]

Lipase (RFU) [4]: 719.1638 RFU
Compound: CC(=O)Nc1ccc(O[C@@H]2O[C@H](C(=O)O)[C@@H](O)[C@H](O)[C@H]2O)cc1 [Acetaminophen glucuronide]

Lipase (RFU) [3]: 930.6695 RFU
Compound: O=P(O)(O)O[C@H]1[C@H](OP(=O)(O)O)[C@@H](OP(=O)(O)O)[C@H](OP(=O)(O)O)[C@@H](OP(=O)(O)O)[C@H]1OP(=O)(O)O [Inositol Hexaphosphate]

Lipase (RFU) [1]: 895.488 RFU
Compound: O=C(O)CC[C@@H](O)C(=O)O.[Na].[Na] [D-α-Hydroxyglutaric acid (disodium)]

Lipase (RFU) [4]: 796.6717 RFU
Compound: NC1(C(=O)O)CC1 [1-Aminocyclopropane-1-carboxylic acid]

Lipase (RFU) [4]: 1198.778 RFU
Compound: O=c1ccc2ccc(O)c(O)c2o1 [Daphnetin]

Lipase (RFU) [2]: 915.619 RFU
Compound: CCCCCCC(C=O)=Cc1ccccc1 [α-Hexylcinnamaldehyde]

Lipase (RFU) [7]: 1079.729 RFU
Lipase (RFU) [2]: 982.6487 RFU
Compound: O=C(O)CCC(=O)O [Succinic Acid]

Lipase (RFU) [5]: 781.9838 RFU
Lipase (RFU) [6]: 980.1322 RFU
Lipase (RFU) [2]: 830.4988 RFU
Lipase (RFU) [4]: 782.5529 RFU
Compound: N[C@@H](Cc1c[nH]cn1)C(=O)O [L-Histidine]

Lipase (RFU) [1]: 820.531 RFU
Compound: CC(=O)N[C@@H](CCCCN)C(=O)O [Acetyl-L-lysine]

— patent US12507703B2, “Methods, devices and compositions for preserving human milk” (The Trustees of Princeton University, priority 2023, dated 2025)
